Source: PubChem BioAssay (Broad Institute)
An excerpt weighted towards active compounds, which were near 2.2% of everything screened.
SIRT5 block: inhibitors of human sirtuin-5 desuccinylase; Q9NXA8; Purified SirT5, succinyl-peptide AMC, trypsin-coupled fluorescence; inhibition, % at 15 µM; hit rate 1.1% among 330,000; AID 652115; in the data active = inhibition above about 15%
UUG fidelity: alters start codon recognition fidelity in yeast; AID 602363; activity score, % at 18.7 µM; 350,000 tested, 0.13% active; S. cerevisiae UUG-firefly luciferase reporter, luminescence/redox ratio;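 active means replicate mean at a twofold rise or more, about +100% in these data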;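 further: firefly luciferase made from a UUG start codon reports start codon fidelity; reporter light over untreated wells divided by growth signal over untreated wells; some hits fall short of that in this replicate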
PDI turbidity: blocks human protein disulfide isomerase activity. hit rate 0.052% among 350,000. inhibition, % at 10 µM. P07237. AID 588391. PDI insulin aggregation turbidity, A650, 90 min;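 active = mean inhibition across replicates of 30% or more, whatever share of single replicates reach that level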
S100A4 MyoIIA: S100A4-myosin IIA interaction inhibition | inhibition, % at 10.7 µM | hit rate 0.14% among 360,000 | S100A4/TAMRA-MyoIIA peptide fluorescence polarization;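 active = mean inhibition of at least 70% across replicates, with every replicate also reaching that level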
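System – human S100A4 monomer protein, biochemical binding assay · Buffer or medium – Calcium-containing HEPES buffer, pH 7.2 · Timing – 5 min between mix addition and reading · Also added – TAMRA-labelled myosin IIA heavy-chain peptide probe, 5 nM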
FGF22 binding: FGF22 (human) thermal shift binding; AID 651658; activity (Tm shift, normalised), % at 9.99 µM; Q9HCT0; recombinant FGF22 thermal shift, SYPRO orange fluorescence; percent of sucrose octasulfate shift, DMSO zero; hit rate 1.5% among 340,000;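 active = mean Tm shift, scaled 0 neutral to 100 positive control, at about 1.3% or above, every replicate too, limit read from the data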
ERp5 block: inhibitors of human ERp5; Q15084; ERp5 insulin aggregation, absorbance 650 nm, 90 min; inhibition, % at 9.99 µM; hit rate 0.05% among 350,000;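 active = mean replicate inhibition above about 25%, with every replicate also reaching it, limit read from the data, passing the limit was not always enough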
* hit, by the source's call.

Start of the listing, in advance:
Results for COC(=O)CNC(=O)COC(=O)/C=C/c1ccc2ccccc2n1 ?
SIRT5 block: 2; PDI turbidity: 10; S100A4 MyoIIA: -1; FGF22 binding: 43*; ERp5 block: -6

How did COCCNC(=O)COC(=O)/C=C/c1cnc2ccccc2n1 do in these assays?
UUG fidelity: -18; PDI turbidity: 3

Results (from the top)
Results for COC(=O)CNC(=O)COC(=O)/C=C/c1ccc2ccccc2n1 ?
SIRT5 block: 2; PDI turbidity: 10; S100A4 MyoIIA: -1; FGF22 binding: 43*; ERp5 block: -6

How did COCCNC(=O)COC(=O)/C=C/c1cnc2ccccc2n1 do in these assays?
UUG fidelity: -18; PDI turbidity: 3

How did CCCC[n+]1c(C)sc2ccc(C)cc21 do in these assays?
SIRT5 block: 2; PDI turbidity: -5; S100A4 MyoIIA: 3; FGF22 binding: 43*; ERp5 block: 0

How did Cc1ccc2sc(C)[n+](CCO)c2c1 do in these assays?
SIRT5 block: -1; UUG fidelity: -19; PDI turbidity: 1; S100A4 MyoIIA: -9; FGF22 binding: 0; ERp5 block: -4

Results for CC(NC(=O)c1ccncc1)C(c1cccs1)N1CCOCC1 (stereo unspecified) ?
SIRT5 block: 20*; UUG fidelity: -8; PDI turbidity: -5; S100A4 MyoIIA: 9; FGF22 binding: 0; ERp5 block: 1

What do the screens show for `CC(NC(=O)c1ccc(C(C)(C)C)cc1)C(c1cccs1)N1CCOCC1` (stereo unspecified)?
SIRT5 block: -4; UUG fidelity: -8; PDI turbidity: -15; S100A4 MyoIIA: -9; FGF22 binding: 0; ERp5 block: 2

What do the screens show for `COc1ccccc1C#Cc1ccc2c(c1)O[C@@H](CN(C)Cc1ccccc1)[C@H](C)CN([C@H](C)CO)S2(=O)=O`?
SIRT5 block: -1; UUG fidelity: 4; S100A4 MyoIIA: 3; FGF22 binding: 0; ERp5 block: -10

What do the screens show for `CCNC(=O)[C@H]1[C@H](CO)[C@H]2Cn3c(ccc(-c4ccccc4F)c3=O)[C@@H]1N2S(C)(=O)=O`?
SIRT5 block: -16; S100A4 MyoIIA: -11; ERp5 block: 3

What do the screens show for `CC#CC[N+](C)(C)CCCCCCCC`?
SIRT5 block: 25*; UUG fidelity: -1; PDI turbidity: 5; S100A4 MyoIIA: 0; FGF22 binding: 0; ERp5 block: 2

How did COc1ccc(NC(=O)N(C)C[C@@H]2Oc3ccc(NC(=O)CCC(F)(F)F)cc3C(=O)N([C@@H](C)CO)C[C@@H]2C)cc1 do in these assays?
SIRT5 block: -2; UUG fidelity: 1; S100A4 MyoIIA: 0; FGF22 binding: 0; ERp5 block: -5

What do the screens show for `CC(C)CN(C(=O)COC(=O)c1cccc2ccccc12)c1c(N)n(Cc2ccccc2)c(=O)[nH]c1=O`?
SIRT5 block: -1; PDI turbidity: 3; S100A4 MyoIIA: -11; FGF22 binding: 0; ERp5 block: 0

Results for COCCN(C(=O)COC(=O)c1cc2c(s1)CCC2)c1c(N)n(Cc2ccccc2)c(=O)[nH]c1=O ?
SIRT5 block: 15*; UUG fidelity: 0; PDI turbidity: 5; S100A4 MyoIIA: -9; FGF22 binding: 0; ERp5 block: 4

What do the screens show for `CCn1nc(C(=O)OCC(=O)N(CC(C)C)c2c(N)n(Cc3ccccc3)c(=O)[nH]c2=O)c2ccccc2c1=O`?
SIRT5 block: -1; UUG fidelity: -9; PDI turbidity: 10; S100A4 MyoIIA: 12; FGF22 binding: 9.2*; ERp5 block: 4

What do the screens show for `C/C(CCc1ccccc1)=N\NC(=O)COc1ccccc1C`?
SIRT5 block: 2; PDI turbidity: 0; S100A4 MyoIIA: 6; FGF22 binding: 43*; ERp5 block: -1

What do the screens show for `O=C(NNc1nc(N2CCOCC2)nc(N2CCOCC2)n1)Nc1ccc(Cl)cc1`?
SIRT5 block: 15*; S100A4 MyoIIA: -4; FGF22 binding: 43; ERp5 block: 5

How did COc1ccc(C2=C(c3ccccc3)OC(OC)c3cc(F)ccc32)cn1 (stereo unspecified) do in these assays?
SIRT5 block: 1; S100A4 MyoIIA: 0; FGF22 binding: 0; ERp5 block: -11

How did COC1OC(c2ccccc2)=C(c2ccc(C(N)=O)cc2)c2ccc(F)cc21 (stereo unspecified) do in these assays?
SIRT5 block: 36*; S100A4 MyoIIA: -1; FGF22 binding: 0; ERp5 block: -1

What do the screens show for `Cc1ccc(C(C[N+](=O)[O-])c2c(C)[nH]n(-c3ccccc3)c2=O)cc1` (stereo unspecified)?
SIRT5 block: 26*; UUG fidelity: -24; PDI turbidity: -2; S100A4 MyoIIA: 4; FGF22 binding: 0; ERp5 block: 0
